# Results: US20140018340A1, “Insulin Mimetic Active Comprising Oxodiperoxo Vanadates and a Pharmaceutical Composition Obtained Thereof” (priority 2011, published 2014)
# Key:
# [1] = system: 3T3-L1 preadipocytes; test: Adipocyte differentiation from preadipocyte to mature adipocyte; conditions: 5 μg/ml for 7 days
# [2] = system: Fetuin-A; test: Fetuin-A secretion and expression
# [3] = system: C/EBPβ; test: Expression of adipogenic factor C/EBPβ
# [4] = system: Glut4 in 3T3-L1 adipocytes; test: In vitro assay of Glut 4 translocation (GFP-Glut4 transfected cells); type: cell-based; conditions: GFP-Glut4 transfected 3T3-L1 adipocytes
# [5] = system: insulin signaling pathway; test: Augmentation of upstream and downstream insulin signaling pathway; conditions: 100 nM, same concentration as insulin, skeletal muscle and 3T3-L1 cell lines
# [6] = system: 3T3-L1 preadipocytes; test: Lipid content in adipocytes by oil red O staining; type: cell-based; conditions: 3T3-L1, oil red O staining
# [7] = system: STZ treated diabetic rats; test: Glucose level in Streptozotocin (STZ) treated diabetic rats; conditions: type 1 diabetes model
# [8] = system: adipocytes; test: Fetuin-A mediated inhibition of adipocyte function
# [9] = system: db/db mice; test: Blood glucose in type 2 diabetic db/db mice, oral administration; conditions: 180 μg/day/animal, starting blood sugar around 600 mg/dl
# [10] = system: L6 skeletal muscles cell line; test: Glucose uptake using radiolabelled [3H]-2-deoxyglucose (2-DOG); type: cell-based
# [11] = system: PPARγ; test: Expression of adipogenic factor PPARγ
# [12] = Stability studies of oxodiperoxo-dmpz-vanadates
substance,measurement,setting,value
DmpzH[VO(O2)2(dmpz)],adipocyte differentiation from preadipocyte to mature adipocyte,[1]; listed as [VO (O2)2 dmpz],induced differentiation of preadipocyte to mature adipocytes
same,adipocyte differentiation from preadipocyte to mature adipocyte,[1]; listed as [VO(O2)2 (dmpz)],induces adipocyte differentiation from preadipocyte to mature adipocyte far more efficiently than insulin
same,palmitate stimulated Fetuin-A secretion,[2],significantly reduced palmitate stimulated Fetuin-A secretion
same,expression of C/EBPβ,[3],significantly augmented
same,Glut4 translocation from cytosol to membrane,[4],alone translocated Glut4 to the membrane
same,augmentation of insulin signaling pathway,[5]; listed as [VO (O2)2 dmpz],significantly augmented both upstream and downstream insulin signaling pathway
same,augmentation of insulin signaling pathway,[5]; listed as [VO(O2)2 dmpz],augmented insulin receptor tyrosine phosphorylation
same,lipid droplet size and numbers in adipocytes,[6],significant increase in lipid droplet size and numbers
same,glucose level in STZ diabetic rats,[7],restored their normal glucose level
same,Fetuin-A induced decrease of lipid droplet size and numbers,[8],strikingly prevented
same,inhibitory activity of fetuin-A on lipid uptake,[8],could be reduced effectively
same,blood glucose level in db/db mice,[9],significantly reduces blood glucose level
same,blood glucose level in db/db mice,[9]; listed as vanadium compound of the present invention,significantly reduced the blood glucose level (p<0.01)
same,fatty acid inhibition of insulin stimulation of 2-DOG uptake,[10]; L6 skeletal muscles cell line,remains preserved
same,Dose in-vitro,[10]; dose level giving elevation of glucose uptake in skeletal muscle cells,100 nM
same,expression of PPARγ,[11]; listed as [VO (O2)2 dmpz],Over expression of PPARγ
same,expression of PPARγ,[11]; listed as [VO(O2)2 (dmpz)],significantly augmented
same,time stable at 4° C.,[12]; 4° C.,6 months
same,time stable at room temperature,[12]; room temperature,10 days
